Here are results for 1 compound from patent US20110152252A1 (priority 2007, published 2011).

The nature of this data set: Solubility. It counts as physicochemical.

Regarding `CN1C(=O)CN=C(c2ccc(Cl)cc2)c2cc(Cl)ccc21`, the “solubility in DMSO or ethanol” value was “soluble” and the “solubility in water / aqueous solutions” value was “insoluble”.
